Source: publication PMC12261321, “Inhibitors of the Bacterioferritin Ferredoxin Complex Dysregulate Iron Homeostasis and Kill and Biofilm-Embedded Cells” (ACS Infectious Diseases, 2025)
Converted amounts (≈) assume the structure as drawn.

Experiments:
[1] = Determination of compound aqueous solubility in M63 media; conditions: in M63 media at 35 °C
[2] = Stability in aqueous solution; assay type: physicochemical

Structure (SMILES) | Solubility [1] | stability in aqueous solution [2]
O=C1NC(=O)c2c(NCc3ccc(Cl)cc3O)cccc21 | 60 µM (≈ 18.2 µg/mL) | 
O=C1NC(=O)c2c(NCc3cc(Cl)cc(Cl)c3O)cccc21 | 40 µM (≈ 13.5 µg/mL) | 
O=C1NC(=O)c2c(NCc3cccc(O)c3O)cccc21 | 200 µM (≈ 56.9 µg/mL) | stable in aqueous solution
O=C1NC(=O)c2c(NCc3c(O)ccc(Br)c3F)cccc21 | 30 µM (≈ 11 µg/mL) | 
O=C1NC(=O)c2c(NCc3cc(F)cc(F)c3O)cccc21 | 100 µM (≈ 30.4 µg/mL) | 
Cc1ccc(O)c(CNc2cccc3c2C(=O)NC3=O)c1 | 120 µM (≈ 33.9 µg/mL) | 
O=C1NC(=O)c2c(NCc3ccc(F)cc3O)cccc21 | 150 µM (≈ 42.9 µg/mL) | 
